From patent US12337010B2, “Compositions and methods of treatment using nicotinamide mononucleotide” (Washington University, priority 2017, dated 2025) come the findings set out here.

Read-outs that look alike come from different tables or passages of the source.

The conditions of the data set: 500 mg/kg oral gavage, 10 min.

Take “18O-2H nicotinamide mononucleotide [18O-D-NMN]”: the “uptake into jejunum and ileum” value (wild-type mice) was “clearly detected”. In addition, the decrease of uptake is, setting by setting: (ileum of Slc12a8KO mice relative to WT) 36%; (jejunum of Slc12a8KO mice relative to WT) 46%.
